test system: cell culture; test: Minimal toxic dose in vitro

Compound | Minimal toxic dose [µg/mL]
NCCSN1C=CN2C(=N1)N=CN2[N+](=O)[O-].O | 200
CS(=O)(=O)N1C=Cn2c(nc(=O)n2[N+](=O)[O-])N1 | >200
C[S+]([O-])N1C=Cn2c(nc(=O)n2[N+](=O)[O-])N1 (stereo not drawn) | >200

Reference: patent US20190211024A1 (priority 2016, published 2019)
